Measurements from PMC10743990.

The chains behind the UniProt entries cited, without tags or fusion partners.
UniProt P49841, whole entry: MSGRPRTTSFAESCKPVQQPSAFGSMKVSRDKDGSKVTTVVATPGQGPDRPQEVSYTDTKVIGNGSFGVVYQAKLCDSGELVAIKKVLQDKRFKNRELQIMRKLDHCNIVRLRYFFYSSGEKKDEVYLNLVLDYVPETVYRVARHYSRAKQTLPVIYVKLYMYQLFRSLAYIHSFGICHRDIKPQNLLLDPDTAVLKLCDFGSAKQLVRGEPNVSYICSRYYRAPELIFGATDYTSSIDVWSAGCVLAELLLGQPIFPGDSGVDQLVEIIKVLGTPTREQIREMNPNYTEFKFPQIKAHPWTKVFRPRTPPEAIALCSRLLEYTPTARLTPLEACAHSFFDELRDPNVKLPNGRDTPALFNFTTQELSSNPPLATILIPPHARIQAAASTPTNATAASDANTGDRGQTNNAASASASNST

Biological target: Glycogen synthase kinase-3 beta (GSK3β) (Homo sapiens, UniProt P49841)
Experiment: in vitro fluorescence-based Z'-LYTE kinase assay, 10-point dose-response

Row | Compound | IC50
1 | COC(=O)c1ccc2occ(-c3oc4ccc(C(=O)OC)cc4c3OCC(=O)Nc3cc(C)cc(C)c3)c2c1 | 5.81 µM
2 | O=C(Nc1ccc2nc(C(F)F)[nH]c2c1)c1ccnc2[nH]c(CC3CC3)nc12 | 0.64 µM
